Values of other authors, collected in article PMC12524297 (International Journal of Molecular Sciences, 2025).

Details: training dataset label; ref List of Hazardous Chemicals (2015 edition); cited from earlier work

Q: With `CN(C)P(=O)(N(C)C)n1nc(-c2ccccc2)nc1N` as the molecule, how does the haz read?
A: 1
